The text below walks through data of patent publication US20250092067A1, “APT1 and APT2 Inhibitors and Uses Thereof” (Cornell University, priority 2021, published 2025).

Sequences of proteins named here, by UniProt entry; tags and fusion partners are left off.
UniProt O75608, whole entry: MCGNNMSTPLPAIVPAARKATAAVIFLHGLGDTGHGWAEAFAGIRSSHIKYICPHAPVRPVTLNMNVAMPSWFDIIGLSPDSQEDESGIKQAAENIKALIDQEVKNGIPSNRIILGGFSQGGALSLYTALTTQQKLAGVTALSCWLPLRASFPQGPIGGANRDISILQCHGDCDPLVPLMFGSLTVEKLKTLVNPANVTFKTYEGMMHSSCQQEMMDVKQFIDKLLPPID
UniProt O95372, whole entry: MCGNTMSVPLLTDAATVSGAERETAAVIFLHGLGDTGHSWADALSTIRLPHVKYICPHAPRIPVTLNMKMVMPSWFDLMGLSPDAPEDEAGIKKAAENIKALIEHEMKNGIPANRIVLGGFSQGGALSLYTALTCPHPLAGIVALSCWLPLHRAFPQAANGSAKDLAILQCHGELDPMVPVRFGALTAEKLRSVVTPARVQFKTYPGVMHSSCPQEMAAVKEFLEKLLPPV

Where two headings read alike, the source gives them in different places.

Data set [1] concerns the target APT1 (Homo sapiens, UniProt O75608). Nature of the data set: APT1 enzymatic assay, resorufin acetate as fluorogenic substrate. The class given is biochemical. The settings on record: read-out: IC50 (μM) APT1.
Data set [2] concerns the target APT2 (Homo sapiens, UniProt O95372). Kind of data set: APT2 enzymatic assay, resorufin acetate as fluorogenic substrate. The data set is classed as biochemical.
Data set [3] deals with SMAD2 palmitoylation. Kind of data set: SMAD2 palmitoylation in HEK 293T cells (Alk14 labeling, in-gel fluorescence). The data set is classed as cell-based. The following applies: inhibitors at 25 μM, 6 h.
The subject of data set [4] is STAT3 palmitoylation. Kind of data set: STAT3 palmitoylation in HEK 293T cells transfected with STAT3, APT2 and DHHC7. The data set is classed as cell-based. The settings on record: inhibitors at 25 μM for 16 hours.
For data set [5], the system named is HEK 293T cells. Nature of the data set: Cell viability of HEK 293T cells. The following applies: at 50 mM (so in the source).
[6] abbreviates: Table 1, resorufin acetate as the substrate.
Setting [7] is: read-out: IC50 (μM) APT2, Table 2, class symbols.

For orientation: IC50 means the point on the concentration scale where inhibition reaches its midpoint. `CCOP(=O)(F)CCc1ccc(C(=O)N2CCN(c3ccc(OC)cc3)CC2)cc1` (stereo not drawn): the values for the IC50 in data set [1] (setting [6]) and in data set [2] (setting [7]) were > 200 µM and 1 to 40 µM, respectively.
`CCOP(=O)(F)c1cc2cc(C(=O)N3CCN(c4ccc(OC)cc4)CC3)sc2c2ccccc12` (stereo not drawn): the IC50 in data set [1] (setting [6]) was 1.06 µM; in data set [1] (Table 2, class symbols) it was 1 to 40 µM; in data set [2] (read-out: IC50 (μM) APT2, Table 1, resorufin acetate as the substrate) it was 1.42 µM; in data set [2] (setting [7]), 1 to 40 µM; in data set [2] (read-out: IC50 (μM) APT2 with 30 min preincubation, 30 min preincubation with APT2 before adding resorufin acetate) it was 0.6 µM; in data set [2] (read-out: IC50 (μM) APT2 with 30 min preincubation, Table 2, class symbols, 30 min preincubation), 0.1 to 1 µM. Besides, in data set [2] (pre-incubation 30 min versus standard), the “time-dependent inhibition of APT2” value is listed as “time-dependent inhibition”. For the same compound, in data set [3], the SMAD2 palmitoylation level result is “slightly better than ML349”. Further, in data set [4], the “STAT3 palmitoylation level (acylation normalized by STAT3 protein)” value is “slightly better than ML349”. Also, the “effect on cell viability” value in data set [5] was “no effect”.
